# Most compounds without a hit are left out; they make up all but 3.7% or so of the library.
# A549 viability: kills or reduces viability of A549 cells in Nrf2 counter-screen | Potency, µM (doses to about 46 µM), for inactives: top-dose activity change, negative = cytotoxicity, actives largely listed as inhibitors | A549 ARE-Fluc cells, CellTiter-Fluor viability, 18-24 h | 390,000 compounds, 0.16% hits | AID 504648; further: potency means the concentration at half of the fitted maximal effect; on the % scale 0 is the no-effect control and ±100 the full control effect
#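 A549 ARE_Fluc cells in 5% FBS OPTI-MEM were exposed to compounds in concentration-response for 18-24 h at 37 deg C. Viability was read by CellTiter-Fluor fluorescence (Ex 405/Em 525) after 30 min, before the luciferase read.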
# TCR act: activators of T cell receptors | AID 504894 | primary human leukocytes, anti-CD3, IL-2 HTRF, 48 h | Potency, µM (series often up to 9.22 µM), for the others: at the highest dose activation of IL-2 secretion, hits mostly activators | 330,000 tested, under 10 active; further: % of control where 0% means no effect
#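 Primary human leukocytes were stimulated with a-CD3 beads plus compounds for 48 hr without co-stimulation; secreted IL-2 was quantified by HTRF using a-IL-2-K (europium cryptate) and a-IL-2-d2, excited at 320nm with acceptor emission read at 665nm.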
# Nrf2 block: blocks Nrf2 signaling; A549 ARE-Fluc reporter, luciferase luminescence, 18-24 h; Potency, µM (series often up to 46 µM), for the others: at the top dose activity change, negative = inhibition, usual class: inhibitors; 360,000 compounds, 2.1% hits; AID 504444; further: potency means the concentration at half of the fitted maximal effect; on the % scale 0 is the no-effect control and ±100 the full control effect; nearly all actives have a fitted effect of over 60% in size
#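 In this cell-based qHTS, ARE-driven firefly luciferase in A549 cells reports Nrf2 activity; the luminescent signal after BugLite lysis is the measured value, with a prior CellTiter-Fluor read for cell health.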
# ClpP mod: qHTS Assay for Activators of ClpP; AID 651965, 2013; Potency, µM (series often up to 57.5 µM), for the others: top-dose activity change, negative = active; 340,000 compounds, 1.9% hits; purified B. subtilis ClpP, FRET peptide cleavage, 20 min; active means well fitted falling curve with a large enough effect; inconclusive means small, poorly fitted or top-dose-only effect; inactive means no such curve, though single readings can be large or run the other way; further: potency means the concentration at half of the fitted maximal effect; the source files actives as falling curves though it sought activators and does not explain the sign; nearly all actives have a fitted effect of over 65% in size
#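 Purified B. subtilis ClpP, 10 microg/mL final in Tris/HCl pH8 with KCl, BSA, glycerol and Tween-20, cleaved an Abz/nitrotyrosine-quenched decapeptide. Fluorescence (ex 320, em 430) was read at 0 and 20 min at room temperature. Delta was normalized to 5.8 microM ADEP and DMSO/no-enzyme controls.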
# miR-21 reporter: miR-21 reporter, rising signal; Potency, µM (top dose mostly 38.3 µM), for the others: at the highest dose reporter change, positive = more light; 340,000 tested, under 10 active; HeLa miR-21 FLuc reporter, luciferase, 48 h; active = well fitted rising curve with a large enough effect; inconclusive = small, poorly fitted or top-dose-only effect; inactive = no such curve, though single readings can be large or run the other way;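 note: % of control where 0% means no effect; miR-21 action dims this reporter so a rising signal means less miR-21 action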
#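 Compounds were titrated across several concentrations (up to approximately 40 uM) and incubated 48 hours with HeLa miR-21-FLuc reporter cells (miR-21 target sequence downstream of FLuc, endogenous miR-21). Readout was firefly luciferase luminescence after lytic detection reagent.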
# Nrf2 activator: Nrf2 pathway activation | AREc32 ARE-luciferase reporter (MCF7-derived line), luminescence, 24 h | Potency, µM (top dose mostly 46.1 µM), for inactives: top-dose activation, usual class: activators | 410,000 compounds, 0.31% hits | AID 624171; further: potency means the concentration at half of the fitted maximal effect; % of control where 0% means no effect; nearly all actives have a fitted effect of over 65% in size
#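 AREc32 cells carrying an ARE-driven firefly luciferase reporter were seeded at 1000 cells/well in OPTI-MEM with 5% FBS, then exposed to compound for 24 hr at 37 deg C. Luminescence was read with Steady-Glo after 30 min at RT.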
# * = called active by the depositor; ? = inconclusive; . = no result; [ ] = another dose, or the depositor's remark. Unless noted, the call rests on the fitted dose curve; in most records, active means well fitted curve in the direction sought with a large enough effect; inconclusive means small, poorly fitted or top-dose-only effect, or another doubt; inactive means no such curve, though single readings can be large; an effect the other way counts as inactive or inconclusive.
1. Cc1cc(C)cc(OCCSc2nc3ccc(NC(=O)c4ccc5c(c4)OCO5)cc3s2)c1
2. Cc1cccc(OCCSc2nc3ccc(NC(=O)c4cccs4)cc3s2)c1
3. O=C(COc1ccccc1F)Nc1ccc2nc(SCC(=O)N3CCOCC3)sc2c1
4. COc1cc(C)ccc1OCCSc1nc2ccc(NC(=O)c3ccc4c(c3)OCO4)cc2s1
5. O=C1CCC2=C1C1(CCCC1)N=C(Nc1nc3ccccc3o1)N2
6. COc1cc(OC)cc(OC(=O)C2CCN(C3=NS(=O)(=O)c4ccccc43)CC2)c1
entry no.,1,2,3,4,5,6
Nrf2 activator,5%,1%,2%,-1%,.,-1%
TCR act,.,.,.,.,.,4%
ClpP mod,4%,20µM*,0%,22µM*,.,0%
Nrf2 block,3%,23µM*,18µM*,-5%,?,2%
miR-21 reporter,3%,?,?,-8%,.,.
A549 viability,4%,1%,-13%,0%,-4%,-2%

7. COc1ccc(C(C(=O)NC2CCCC2)n2c(C3CCN(C(C)=O)CC3)nc3ccccc32)cc1 (centres undefined)
8. Cc1ccccc1OCCSc1nc2ccc(NC(=O)c3cccs3)cc2s1
9. Cc1ccccc1OCCSc1nc2ccc(NC(=O)c3cccc(F)c3)cc2s1
10. Cc1ccc(CNc2cnccn2)cc1
11. c1ccc(CCNc2cnccn2)cc1
12. c1ccc(CNc2cnccn2)cc1
entry no.,7,8,9,10,11,12
Nrf2 activator,.,3%,0%,0%,5%,-1%
TCR act,.,.,.,.,2%,7%[46.1 µM]
ClpP mod,-17%,14µM*,22µM*,14µM*,4%,3.2µM*
Nrf2 block,.,?,?,.,2%,.
miR-21 reporter,.,?,-7%,-17%,-24%,0%
A549 viability,.,-9%,-10%,-1%,2%,-5%

# Single records (already shown). Order of values: Nrf2 activator, TCR act, ClpP mod, Nrf2 block, miR-21 reporter, A549 viability
# Cc1ccccc1OCCSc1nc2ccc(NC(=O)c3cccc(F)c3)cc2s1 is listed as 0%, ., 22µM*, ?, -7%, -10%
# Cc1ccc(CNc2cnccn2)cc1 is listed as 0%, ., 14µM*, ., -17%, -1%

# Results in sequence from above.
# Compounds 7–11 in Nrf2 activator read ., 3%, 0%, 0%, 5%
# Compounds 7–11 in A549 viability read ., -9%, -10%, -1%, 2%

# Additional compounds
13. CCSC1(SCC)N=C(N)C2(C#N)C(c3ccccc3)NC3=C(CCC3)C12C#N (centres undefined)
14. COc1ccc2ncc3c(-c4ccccc4)nn(-c4ccc(C)c(C)c4)c3c2c1
15. O=C(Nc1ccc(F)cc1)C1CCC(CNc2c(N3CCCCC3)c(=O)c2=O)CC1 (centres undefined)
16. c1nc2sc3c(c2c2nnnn12)CCCC3
17. c1nnc2c3c4c(sc3ncn12)CCCC4
18. c1nc2sc3c(c2c2nnnn12)CCC3
entry no.,13,14,15,16,17,18
Nrf2 activator,14µM*,0%,0%,-1%,.,0%
TCR act,-4%,.,9%,-8%,.,-6%
ClpP mod,-2%,?,1%,16µM*,.,14µM*
Nrf2 block,1%,-25%,-26%,?,.,-38%
miR-21 reporter,-3%,3%,-1%,11%,-1%,7%
A549 viability,4%,-2%,1%,-3%,.,-3%

19. COc1cc(OC)cc(C(=O)N2CCN(S(=O)(=O)c3ccc4c(c3)OCCO4)CC2)c1
20. CCOc1ccccc1C1N=C(c2ccc(OC)cc2)CC(c2ccccc2O)N1 (centres undefined)
21. CC(C)C1N=C(c2ccc3c(c2)OCO3)CC(c2ccccc2O)N1 (centres undefined)
22. COc1ccc(CN(C)CCCn2cnc3c(SC)ncnc32)cc1OC
23. CC1=C(C(N)=O)C(c2cccnc2)n2nc(-c3cccc(C)c3)nc2N1 (centres undefined)
24. CC1=C(C(N)=O)C(c2cccs2)n2nc(-c3cccc(Cl)c3)nc2N1 (centres undefined)
25. CC1=C(C(N)=O)C(c2cccs2)n2nc(-c3cccc(C)c3)nc2N1 (centres undefined)
26. COc1ccc(C2(O)CC3CCC(C2)N3c2nc(C)cc(C)c2C#N)cc1 (centres undefined)
entry no.,19,20,21,22,23,24,25,26
Nrf2 activator,0%,16µM*,?,0%,-1%,18%,0%,0%
TCR act,.,-5%,2%,.,-2%,.,-4%,-12%
ClpP mod,3%,0%,-1%,-2%,32µM*,-2%,-3%,28µM*
Nrf2 block,.,?,23%,.,-2%,13µM*,-1%,-8%
miR-21 reporter,.,0%,16%,.,-1%,-3%,-3%,17%
A549 viability,.,-10%,-9%,.,2%,0%,-10%,-3%

# Screens from PubChem.
